Patent US11448643B2, “Methods to specifically profile protease activity at lymph nodes” (Massachusetts Institute of Technology, priority 2016, dated 2022)

Details: healthy mice, subcutaneous injection, FIG. 5

For “Albumin-GPLGVRGKGK(Biotin)eGvndneeGffsarK(FAM) [Albumin-B7]”, the “urine reporter signal at 24 hours post-injection” value (24 hours post-injection) was “detectable signal” and the “time of peak urine signal of reporter” value (post-injection) was 3 h.
